# AlphaSeq binding of Ab-14 light chain variants to a spike HR2 peptide

Target: peptide PDVDLGDISGINAS, taken from heptad repeat 2 (HR2) of SARS-CoV-2 spike.

Each scFv is VH, a (GGGGS)3 linker, VL, as in the parent Ab-14, and differs from it in the CDRs of the light chain only.
VH: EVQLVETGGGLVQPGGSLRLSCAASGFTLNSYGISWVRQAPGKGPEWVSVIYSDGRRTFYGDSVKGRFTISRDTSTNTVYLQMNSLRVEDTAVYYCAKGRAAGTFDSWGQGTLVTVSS
VL: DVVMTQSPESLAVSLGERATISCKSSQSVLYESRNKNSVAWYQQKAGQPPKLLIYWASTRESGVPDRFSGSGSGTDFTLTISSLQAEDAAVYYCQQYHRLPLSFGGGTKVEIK

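The variants were designed computationally from a first round of random CDR variants and then made and measured. Several design methods are mixed in this list. The assay is AlphaSeq: two haploid yeast populations carry antibody and antigen on their surface. Pairs that bind mate more often; barcode pairs of the diploids are counted by sequencing. Read counts were normalised to the haploid input and turned into Kd by a linear fit to BCL2-family pairs of known affinity, for each replicate. Each pool was mated in six replicate cultures.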

Each variant is given by its three light chain CDRs, as the data file delimits them; those of the parent are KSSQSVLYESRNKNSVA, WASTRES, QQYHRLPLS. The Kd shown is the geometric mean over detected replicates; a lower Kd is a better binder. "no signal" means that the variant was in the library but no mating with the target was seen in any replicate; the authors take this as a sign of poor binding, and no number exists.

Kd (apparent)	detected	empty controls	CDR-L1	CDR-L2	CDR-L3
1.3 nM	6 of 6	0 of 18	TISGVMQQMSHSKNNVA	EVSERLD	QQYFRLPLE
no signal	0 of 6	0 of 18	KLMNSLDAFKQWEDNVA	ETEHKVA	QQYYHLPLT
30 nM	6 of 6	0 of 18	KVEQSVPYESRNKNSVA	NASTRES	QQYHRLPLS
2.4 nM	6 of 6	0 of 18	KASPSEEYESRNKNSVA	HASLRLE	QQYHRLPLS
5.9 nM	6 of 6	0 of 18	KSSQSVLDGTENKNSVA	WASTRES	QQYHRLPLS
600 pM	6 of 6	3 of 18	KSSHSPLYESRQKNSVA	DASTRES	QQYHRLPLS
73 nM	2 of 6	0 of 18	MLGDVAMGLTRKEDSVA	DNSTRED	QQYDRLPLS
1.5 nM	6 of 6	0 of 18	KLQNSYEYESRMMNSVA	NASTRLE	QQYHRLPLS
1.1 nM	6 of 6	2 of 18	KIYQATAMTSSVRNNVA	DLNERER	QQYFRLPLS
1.5 nM	6 of 6	1 of 18	KLSQSDLYESRNKNSVA	NASTRLS	QQYHRLPLS
12 nM	6 of 6	1 of 18	KSSQSELYESRHGNSVA	NASYRED	QQYHRLPLS
1.7 nM	6 of 6	1 of 18	KLSQSPLYESRNKNSVA	NASQRES	QQYHRLPLS
8.8 nM	6 of 6	0 of 18	KLSMLTEMSHVNRNSVA	ELVTRMS	QQYNRLPLS
94 nM	6 of 6	2 of 18	KCSQSVLYESRNKNSVA	WASTRSS	QQYHRLPLS
no signal	0 of 6	0 of 18	IISQSVLGESRNINSVA	QTSEREY	QQYDRLPLS
800 pM	6 of 6	0 of 18	KFSQSVLDESRNMNSVA	EASTRET	QQYHRLPLS
1.1 nM	6 of 6	0 of 18	QLGASFDMTSKNKNSVA	EQSTRGN	QQYHRLPLS
3.7 nM	6 of 6	1 of 18	KISMMYRFESTASNSIA	EMTTRAE	QSYHRLPLS
4.2 nM	6 of 6	0 of 18	KSTQSLLYESHNKNSVA	NSSTRES	QQYHHLPLS
12 nM	6 of 6	1 of 18	KLLWSVLYESNNKNSVA	HASTRED	QQYHRLPLS
330 pM	6 of 6	1 of 18	KFQQSWLYESRNKNSVA	NASTRES	QQYHRLPLS
940 pM	6 of 6	2 of 18	KVSDMMAFLSRNRNSVA	DNSTRGE	QQYHRLPLS
940 pM	6 of 6	0 of 18	KMSQSWLYESQNSNSVA	HASQRMS	QQYHRLPLS
580 pM	6 of 6	0 of 18	KVSQSGLYESRNKQSVA	NASTRES	QQYHRLPLS
2.9 nM	6 of 6	2 of 18	KLVQSNLYESRNTNSVA	NASQRLQ	QQYHRLPLS
no signal	0 of 6	0 of 18	KSSHSVLYESYNKNSVA	WASTRES	EQYHRLPLS
2.6 nM	6 of 6	0 of 18	TISGLIMMPSRNANSVA	NTSTRYS	QQYHRLPLS
21 nM	3 of 6	1 of 18	TISQVMNTLTRQGNNVA	DLQNRED	QQYFRLPLS
780 pM	6 of 6	0 of 18	KLQQSYLYESRNKNSVA	NASQRES	QQYHRLPLS
850 nM	1 of 6	1 of 18	KLSQFYRMESRNKNSVA	DNSTREK	QQYDRLPLS
11 nM	6 of 6	1 of 18	KLKQSVDYESRNKNSVA	NASTRES	QQYHRLPLS
2.0 nM	6 of 6	1 of 18	QLNEYKHETMEKTQNIA	DMTIREP	QQYAHLPLA
4.9 µM	4 of 6	1 of 18	MITESVMYESRNRNSVA	DNSTRED	QCYDRLPLS
200 pM	6 of 6	0 of 18	KVSQGELYESRNANNVA	NASQREN	QQYHRLPLS
14 nM	6 of 6	0 of 18	KLSQVTNSEHKVQNSIA	EMVTREK	QQYDRLPLS
78 nM	5 of 6	1 of 18	KISQNMGETQRNKHSVA	EVSLVPS	QQYWRLPLS
1.3 nM	6 of 6	0 of 18	SISGFMKSLSAHINNVA	DMTNREN	QQYDRLPLS
1.4 nM	6 of 6	1 of 18	KLSQSDEYESRNKNSVA	NASTRES	QQYHRLPLS
610 pM	6 of 6	2 of 18	KVSQSELYESRNKNAVA	EASTRES	QQYHRLPLS
36 nM	5 of 6	0 of 18	MMSQVTGMGARHRNNVA	QTSTREP	QQYDRLPLI
540 pM	6 of 6	1 of 18	KQSDSVLMESRNKNSVA	DASTRES	QQYHRLPLS
4.3 nM	6 of 6	0 of 18	KAQFSCLYESRNQNSVA	SASYRLS	QQYHRLPLS
900 nM	3 of 6	0 of 18	MLSGVLHMLGAKKNSIA	DLVLRAN	QQYHRLPLS
28 nM	6 of 6	0 of 18	MISDLMMYGSRAKNPIA	NASTREY	QQYHRLPLE
56 nM	6 of 6	1 of 18	MLSDLNRMGVRNTQSVA	DNSTRGE	QQYDRLPLS
2.9 nM	6 of 6	0 of 18	MVTQMAMTGMMSKRSVA	NASTREN	QQYHRLPLI
82 nM	6 of 6	3 of 18	MLSDLVKMGHRNTNSVA	DNSTRGS	QQYDRLPLS
2.4 nM	6 of 6	0 of 18	KISQSILFMSGTKNAIA	QMEMREE	QQYHRLPLS

The authors' rule: three or more of the six replicates give a measured affinity, fewer mean a poor binder. Nonspecific signal, from three strains lacking the peptide, appeared in 4% of pairings of all light chain designs, centred on 430 nM (5% of these signals below 38 nM); values are not corrected for it. The control count says in how many pairings with the empty strains this scFv gave a signal. Of ten entries with the parent sequence, four were seen in most replicates (averages 2.2 nM to 240 nM), three in one and three in none, so single entries are noisy. Values of this round are not directly comparable with the first-round values of the same sequences.

Source: Li et al. 2023 (doi:10.1038/s41467-023-39022-2), MIT Lincoln Laboratory and A-Alpha Bio; data file from the FLAb repository.